Screening results deposited in PubChem by National Center for Advancing Translational Sciences (NCATS).
G9a inh = G9a (human) methyltransferase inhibition. Q96KQ7. G9a H3K9 monomethylation, AlphaScreen, 2 h. Potency, µM (titrated, usually from 102 µM), for inactives: top-dose activity, negative = inhibition, most hits filed as inhibitors. 350,000 tested, 8.8% active. AID 504332; further: potency means the concentration at half of the fitted maximal effect; on the % scale 0 is the no-effect control and ±100 the full control effect; nearly all actives have a fitted effect of over 75% in size
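G9a (20 nM) was preincubated 15 min with compound, then reacted 2 h at room temperature with 500 nM biotin-H3K9 peptide and 20 µM SAM. Monomethyl-H3K9 detected by AlphaScreen using anti-H3K9me1 antibody.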
ALDH1A1 inh = blocks purified human ALDH1A1 activity. P00352. Purified ALDH1A1, NADH fluorescence, propionaldehyde substrate. Potency, µM (top dose mostly 75.3 µM), for inactives: top-dose activity, negative = inhibition, hits mostly inhibitors. 220,000 tested, 7.3% active; active means well fitted inhibition curve with a large enough effect, not every such curve was filed as active; inconclusive means small, poorly fitted or top-dose-only effect, or another doubt; inactive means no such curve, though single readings can be large or run the other way;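 further: potency means the concentration at half of the fitted maximal effect; plate controls were no enzyme wells and a reference inhibitor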
Lamin A splicing = modulators of lamin A splicing; AID 1487; 200,000 tested, 0.01% active; Potency, µM (highest dose often 46.1 µM), without a hit: at the top dose ratio change, negative = inhibition, hits mostly inhibitors; HeLa LMNA splicing GFP/RFP minigene ratio, 48 h; active means well fitted inhibition curve with a large enough effect in the signal ratio, with a control signal flat, not every such curve was filed as active; inconclusive means small, poorly fitted or top-dose-only effect, or effect the other way, or a change in a side signal; the % refers to the signal ratio; further: potency means the concentration at half of the fitted maximal effect; on the % scale 0 is the no-effect control and ±100 the full control effect
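S3 HeLa cells stably expressing lamin A-EGFP splicing minigene plus DsRed2, 600 cells/well, 48 h compound exposure at 37C. Laser-scanning cytometry; analysed as GFP (500-530 nm)/RFP (575-640 nm) total intensity ratio; 0.5% DMSO vehicle.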
KDM4E inh = blocks human JMJD2E demethylase activity; JMJD2E catalytic domain, FDH-coupled NADH fluorescence (FDH is formaldehyde dehydrogenase); 230,000 tested, 1.6% active; B2RXH2; Potency, µM (highest dose often 57.1 µM), without a hit: at the highest dose activity change, negative = inhibition, hits mostly inhibitors; active means well fitted inhibition curve with a large enough effect, not every such curve was filed as active; inconclusive means small, poorly fitted or top-dose-only effect, or another doubt; inactive means no such curve, though single readings can be large or run the other way;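 further: potency means the concentration at half of the fitted maximal effect; 0% = wells with enzyme and -100% = buffer wells without enzyme; nearly all actives have a fitted effect of over 50% in size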
miR-21 reporter = miR-21 reporter, rising signal; HeLa miR-21 FLuc reporter, luciferase, 48 h; Potency, µM (top dose mostly 38.3 µM), without a hit: at the highest dose reporter change, positive = more light; 340,000 tested, under 10 active; active = well fitted rising curve with a large enough effect; inconclusive = small, poorly fitted or top-dose-only effect; inactive = no such curve, though single readings can be large or run the other way;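 further: % of control where 0% means no effect; miR-21 action dims this reporter so a rising signal means less miR-21 action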
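Luminescence from a firefly luciferase reporter carrying a miR-21 binding site downstream, stably expressed under a CMV promoter in HeLa cells that make miR-21 endogenously, reports miRNA modulation after 48 h compound exposure up to approximately 40uM final.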
Sfp PPTase inh = qHTS Assay for Inhibitors of Bacillus subtilis Sfp phosphopantetheinyl transferase (PPTase); 4'-phosphopantetheinyl transferase ffp (Bacillus subtilis), Q9F4F7; Biochemical Sfp PPTase activity, qHTS; Potency, µM, inactives show max response, negative = inhibition, hits mostly inhibitors; 310,000 compounds, 3.5% hits; AID 1490, 2009; active means well fitted inhibition curve with a large enough effect; inconclusive means small, poorly fitted or top-dose-only effect, or another doubt; inactive means no such curve, though single readings can be large or run the other way;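 further: the enzyme is Sfp with the accession as filed and its product quenches rhodamine fluorescence; potency means the concentration at half of the fitted maximal effect; 0% = enzyme reaction without inhibitor and -100% = no enzyme wells; top concentration of the series not given in the record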
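Reaction rates are the 30-min fluorescence difference (ex 525, em 598 nm) in wells containing 15 nM Sfp, 5 uM rhodamine-CoA and 12.5 uM BHQ-2-YbbR at pH 7.6 with 10 mM MgCl2.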
* hit, by the source's call; i = inactive; ? = inconclusive; nt = no result; [ ] = dose if it differs, or a comment. An excerpt weighted towards active compounds, which were near 13% of everything screened. Unless noted, the call rests on the fitted dose curve; in most records, active means well fitted curve in the direction sought with a large enough effect; inconclusive means small, poorly fitted or top-dose-only effect, or another doubt; inactive means no such curve, though single readings can be large; an effect the other way counts as inactive or inconclusive.

1	Cc1ccc(S(=O)(=O)N2CCCc3cc(NS(=O)(=O)c4ccc(F)c(C)c4)ccc32)cc1
2	Cc1ccn2c(Nc3ccc4c(c3)OCO4)c(-c3ccc(O)cc3)nc2c1
3	Oc1ccc(-c2nc3ncccn3c2Nc2ccc3c(c2)OCO3)cc1
4	COc1ccc(Nc2c(-c3ccco3)nc3cccc(C)n23)cc1
5	Cc1ccn2c(Nc3ccc4c(c3)OCCO4)c(-c3ccc(C)o3)nc2c1
Assay by compound | 1 | 2 | 3 | 4 | 5
G9a inh | 1%[59 µM] | 35µM* | ? | 25µM* | 25µM*
ALDH1A1 inh | nt | nt | -10% | ? | nt
Lamin A splicing | ? | nt | -4% | nt | nt
KDM4E inh | nt | ? | -4% | ? | nt
miR-21 reporter | 23% | -15% | 5% | 12% | -41%
Sfp PPTase inh | nt | -5% | -2% | -6% | nt

6	Cc1ccc(-c2nc3ccccn3c2Nc2ccc3c(c2)OCCO3)s1
7	Cc1ccccc1Nc1c(-c2ccco2)nc2c(C)cccn12
8	c1ccc(-c2nc3cnccn3c2Nc2ccc3c(c2)OCCO3)cc1
9	Cc1ccc2nc(-c3ccco3)c(Nc3ccc4c(c3)OCCO4)n2c1
10	Oc1ccc(-c2nc3cnccn3c2Nc2ccc3c(c2)OCCO3)cc1
Assay by compound | 6 | 7 | 8 | 9 | 10
G9a inh | 8.9µM* | 14µM* | ? | ? | ?
ALDH1A1 inh | nt | nt | 0% | nt | 40µM*
Lamin A splicing | nt | nt | -9% | nt | ?
KDM4E inh | nt | nt | 2% | nt | 0%
miR-21 reporter | -62% | 24% | -12% | -12% | -37%
Sfp PPTase inh | nt | nt | 6% | nt | 8%

11	c1coc(-c2nc3ccccn3c2Nc2ccc3c(c2)OCCO3)c1
12	CN(C)c1ccc(-c2nc3ccccn3c2Nc2ccc3c(c2)OCCO3)cc1
13	CSc1nc(N2CCOCC2)c2c(c1C#N)CC(C(C)C)OC2 (stereo not given)
14	Cn1c(N)c(C#N)c2c(c1=S)CSC(C)(C)C2
15	CC(C)C1Cc2c(C#N)c(N)n(C)c(=S)c2CO1 (stereo not given)
Assay by compound | 11 | 12 | 13 | 14 | 15
G9a inh | 13µM* | 2.2µM* | 13% | 25µM* | 50µM*
ALDH1A1 inh | nt | nt | nt | ? | -4%
Lamin A splicing | nt | nt | nt | -1% | 3%
KDM4E inh | nt | nt | nt | ? | -3%
miR-21 reporter | -53% | -42% | -2% | -6% | -28%
Sfp PPTase inh | nt | nt | 9% | 79µM* | -5%

16	Cn1c(N)c(C#N)c2c(c1=S)COC(C)(C)C2
17	CC1(C)Cc2c(C#N)c(N)sc(=S)c2CS1
18	CN1CCN(C(=O)Cn2c(-c3cccs3)cc3cc(Cl)ccc32)CC1
19	CN1CCN(c2ncc3ncc(=O)n(C4CC4)c3n2)CC1
20	CCN1C(=O)c2cccc3cccc1c23
Assay by compound | 16 | 17 | 18 | 19 | 20
G9a inh | -16% | 25µM* | -39%[59 µM] | 0%[0.501 µM] | -23%[12.7 µM]
ALDH1A1 inh | -11% | 7.1µM* | nt | ? | ?
Lamin A splicing | 11% | 12% | 3%[46 µM] | 6% | -24%
KDM4E inh | -17% | ? | nt | nt | -11%
miR-21 reporter | -8% | -10% | -2% | nt | -15%
Sfp PPTase inh | 10% | 16µM* | nt | 3% | 16µM*

21	Cc1ccccc1N1C(=O)c2cccc3cccc(c23)C1=O
22	O=C(O)c1ccccc1N1C(=O)c2cccc3cccc(c23)C1=O
23	Cc1ccc(C(C)(C)c2ccc(C)cc2)cc1
24	Cc1ccc2c(c1)C(=O)C(=O)N2Cc1ccc(OCCC(C)C)cc1
25	CCOC(=O)C1=C(c2ccccc2)NC(SC)=C(C#N)C1c1ccco1 (stereo not given)
Assay by compound | 21 | 22 | 23 | 24 | 25
G9a inh | 7% | 31% | 16%[12.7 µM] | -32%[59 µM] | 45µM*
ALDH1A1 inh | nt | nt | nt | nt | ?
Lamin A splicing | nt | nt | nt | nt | 10%
KDM4E inh | nt | nt | nt | nt | -8%
miR-21 reporter | -35% | 1% | nt | 16% | 7%
Sfp PPTase inh | 50µM* | 14% | 12% | nt | 0%

26	CCOC(=O)C1=C(c2ccccc2)NC(SCC(=O)Nc2ccc(C)cc2)=C(C#N)C1c1ccco1 (stereo not given)
27	CCOC(=O)C1=C(c2ccccc2)NC(SCC(=O)Nc2ccccc2C)=C(C#N)C1c1ccco1 (stereo not given)
28	CCCOc1ccc(/C=C2/C(=O)ON=C2C)cc1OCC
29	CCOc1cc(/C=C/C(=O)O)ccc1OCc1ccccc1
30	CCCCc1ccc(/C=C2/C(=O)ON=C2c2ccccc2)s1
Assay by compound | 26 | 27 | 28 | 29 | 30
G9a inh | -6%[59 µM] | ? | 45µM* | -32% | -4%[59 µM]
ALDH1A1 inh | 3% | 14µM* | nt | 1% | ?
Lamin A splicing | ? | ? | nt | ? | -12%
KDM4E inh | ? | 178% | nt | ? | 5%
miR-21 reporter | 28% | 19% | 0% | 1% | -6%
Sfp PPTase inh | -10% | -1% | ? | 7% | -11%

31	CCCOc1ccccc1/C=C1/C(=O)ON=C1C
32	CCOc1cc(/C=C2\C(=O)ON=C2C)ccc1OCc1ccccc1
33	CCOC(=O)c1ccc(NC(=O)C2CCCN(c3ccc(Sc4ccc(C)cc4)nn3)C2)cc1 (stereo not given)
34	Cc1cc(C)n(-c2nc3ccccc3c(=O)n2OCC#N)n1
35	NC(=O)CN(Cc1ccccc1)S(=O)(=O)c1ccc2c(c1)OCCO2
Assay by compound | 31 | 32 | 33 | 34 | 35
G9a inh | -22% | 13µM* | -33%[59 µM] | 8% | -2%
ALDH1A1 inh | nt | 3.5µM* | nt | nt | nt
Lamin A splicing | nt | 3% | nt | nt | nt
KDM4E inh | nt | 0% | nt | nt | nt
miR-21 reporter | 1% | -3% | 14% | -8% | 2%
Sfp PPTase inh | 56µM* | 22µM* | nt | 8% | -2%

36	COc1ccc(S(=O)(=O)N(C)C)cc1NCC(=O)Nc1ccc(Br)cc1F
37	Cc1c(C(=O)Nc2cccc(-c3nc4ccccc4s3)c2)oc2ccc(F)cc12
38	Cn1c(-c2nonc2N)nc2ccccc21
39	CCCC(=O)c1cc(-c2nc3ccccc3n2C)n(C)c1
40	CC(=O)c1ccc(-c2nc3ccccc3n2C)o1
Assay by compound | 36 | 37 | 38 | 39 | 40
G9a inh | -9%[59 µM] | -18%[59 µM] | 40µM* | ? | -5%[12.7 µM]
ALDH1A1 inh | 11µM* | nt | nt | -4% | ?
Lamin A splicing | ? | 5%[46 µM] | nt | -9% | -6%
KDM4E inh | 1% | nt | nt | -14% | ?
miR-21 reporter | 6% | -1% | -6% | -12% | -39%
Sfp PPTase inh | -10% | nt | 3% | 19% | 40µM*

41	Cn1c(-c2ccc(Br)o2)nc2cc(Br)ccc21
42	Cc1ccc2nc(-c3ccc(Br)o3)oc(=O)c2c1
43	Oc1ccc(Cn2c(-c3ccc(O)cc3)nc3ccccc32)cc1
44	Brc1ccc(Cn2c(-c3ccc(Br)o3)nc3ccccc32)o1
45	Cc1ccc(CNS(=O)(=O)c2cc3[nH]c(=O)c(=O)[nH]c3cc2C)cc1
Assay by compound | 41 | 42 | 43 | 44 | 45
G9a inh | ? | 2%[2.33 µM] | nt | 40µM* | 1%[59 µM]
ALDH1A1 inh | ? | ? | 10%[13.5 µM] | 1% | nt
Lamin A splicing | 9% | 3% | nt | ? | ?
KDM4E inh | -9% | ? | nt | i | nt
miR-21 reporter | -51% | -2% | nt | -30% | -12%
Sfp PPTase inh | 40µM* | 12% | nt | ? | nt

The closing 2 records of the section above open the next one:
44	Brc1ccc(Cn2c(-c3ccc(Br)o3)nc3ccccc32)o1
45	Cc1ccc(CNS(=O)(=O)c2cc3[nH]c(=O)c(=O)[nH]c3cc2C)cc1
46	CN(C)c1ccc(-c2nc3ccccc3n2C)cc1
47	Cc1ccc(-c2nc3ccccc3n2C)o1
48	Cn1c(-c2ccc(Br)o2)nc2ccccc21
49	Cn1c(Sc2nc3ccccc3n2C)nc2ccccc21
50	COc1ccc(C)cc1NC(=O)C(=O)NNC(=O)COc1ccc(Cl)cc1
Assay by compound | 44 | 45 | 46 | 47 | 48 | 49 | 50
G9a inh | 40µM* | 1%[59 µM] | ? | 13µM* | -10%[59 µM] | ? | 8%
ALDH1A1 inh | 1% | nt | ? | ? | ? | 13% | 1%
Lamin A splicing | ? | ? | ? | ? | 1% | -23% | -12%[9.22 µM]
KDM4E inh | i | nt | ? | ? | -9% | 4% | -2%
miR-21 reporter | -30% | -12% | 15% | -40% | -32% | -1% | -2%
Sfp PPTase inh | ? | nt | ? | 35µM* | 40µM* | 20% | 15%

51	O=C(NC1CC(=O)N(c2ccc(F)cc2)C1)c1cc2ccccc2o1 (stereo not given)
52	CCOC(C)=O
53	CCOC(=O)[C@@H](N)CS
54	Cn1cccc1C1NC(=O)c2c(sc3c2CCC(C(C)(C)C)C3)N1 (stereo not given)
Assay by compound | 51 | 52 | 53 | 54
G9a inh | 3%[59 µM] | 17%[59 µM] | ? | ?
ALDH1A1 inh | nt | ? | nt | ?
Lamin A splicing | 3%[46 µM] | ? | ? | ?
KDM4E inh | nt | nt | nt | ?
miR-21 reporter | -2% | nt | nt | -16%
Sfp PPTase inh | nt | 13% | 28µM* | -74%
